From paper PMC11748689, “Pharmacological and structural understanding of the Trypanosoma cruzi proteasome provides key insights for developing site-specific inhibitors” (The Journal of Biological Chemistry, 2024) come the findings set out here.

Structures are written as SMILES.

What all share (type): biochemical
Test [1] deals with native T. cruzi proteasome (chymotrypsin-like activity, β5) (Trypanosoma cruzi, UniProt V5BU39+V5C017). The test can be described thus: Chymotrypsin-like activity assay (Proteasome-Glo), native T. cruzi proteasome. The protocol:
(§1) Chymotrypsin-, trypsin-, and caspase-like activity assays were performed using a commercially available Proteasome-Glo 3-substrate system assay kit (catalog number G8532) (Promega Corporation) according to the manufacturers protocols and as previously described ([24]).
Prior to running assays, Proteasome-Glo buffer was used to reconstitute the luciferin detection reagent (containing a recombinant thermostable luciferase enzyme). The resuspended luciferin detection reagent was then mixed with Proteasome-Glo chymotrypsin-, trypsin- or caspase-like substrates (either 40 μM suc-Leu-Leu-Val-Tyr-aminoluciferin, 30 μM Z-Leu-Arg-Arg-aminoluciferin (Z is benzyloxycarbonyl) or 40 μM Z-Nle-Pro-Nle-Asp-aminoluciferin respectively (these concentrations represent 2x final assay concentrations)). These substrate mixtures were allowed to incubate at room temperature for 60 min prior to use to allow the removal of any contaminating free aminoluciferin. […]
Following the 60 min incubation of proteasome and compounds, assays were initiated with the addition of 4 μl of a substrate mix (containing substrate and the luciferin detection reagent) using an electronic multichannel pipette. […] Following a further 60 min assay incubation, luminescence was read using an EnVision 2102 Multilabel Reader (PerkinElmer, Inc) with 0.2 s per well reading time. […]

Test [2] concerns the target recombinant WT T. cruzi proteasome (chymotrypsin-like activity, β5) (Trypanosoma cruzi, UniProt V5BU39+V5C017). As to the kind of experiment: biochemical. The protocol:
as §1
(§2) Prior to running assays, Proteasome-Glo buffer was used to reconstitute the luciferin detection reagent (containing a recombinant thermostable luciferase enzyme). The resuspended luciferin detection reagent was then mixed with Proteasome-Glo chymotrypsin-, trypsin- or caspase-like substrates (either 40 μM suc-Leu-Leu-Val-Tyr-aminoluciferin, 30 μM Z-Leu-Arg-Arg-aminoluciferin (Z is benzyloxycarbonyl) or 40 μM Z-Nle-Pro-Nle-Asp-aminoluciferin respectively (these concentrations represent 2x final assay concentrations)). These substrate mixtures were allowed to incubate at room temperature for 60 min prior to use to allow the removal of any contaminating free aminoluciferin.
Proteasome assays were carried out using 384-well, white, low-volume plates (catalog number 784904) (Greiner Bio-One) at room temperature (∼23 °C) in 8 μl reaction volumes. […]
(§3) A 1 in 2 dilution series of the various T. cruzi proteasome samples (native, recombinant WT, β4^R mutant, and Δβ1Δβ2 mutant) were produced in assay buffer (50 mM Tris–HCl, pH 7.5, 10 mM sucrose, 5 mM MgCl2, 1 mM DTT, 2 mM ATP, 150 mM NaCl, 1 mM EDTA, and 0.05 mg/ml bovine serum albumin). […] When kinetic read activity checks were performed (Fig. 2), proteasome final assay concentrations used were 115 μg/ml, 115 μg/ml, and 230 μg/ml native proteasome (in the chymotrypsin, trypsin, and caspase assays, respectively), and 4.1 μg/ml, 3.4 μg/ml, or 1.4 μg/ml recombinant WT proteasome (in the chymotrypsin, trypsin, and caspase assays, respectively). […]
(§4) Luminescence was read either kinetically or as an endpoint read using an EnVision 2102 Multilabel Reader (PerkinElmer, Inc) with 0.2 s per well reading time. When kinetic assays were run, luminescence was read every 5 min for 90 min. Endpoint assays were run for 60 min before luminescence was read. […]

Test [3] addresses recombinant Δβ1Δβ2 mutant T. cruzi proteasome (chymotrypsin-like activity) (Trypanosoma cruzi, UniProt V5BU39+V5C017). The test can be described thus: biochemical. The protocol:
(§5) Point mutations were created in individual subunits using overlapping PCR from the original templates using Polh and Tn7L primers outside the genes and suitable internal primers to introduce selected mutations. For Δβ1Δβ2, β1 Thr 55, and β2 Thr 67 were both mutated to Ala, the β4^R mutant was produced by mutating Phe 24 and Ile 29 to Leu and Met respectively in β4 subunit.
as §1, §2
(§6) Proteasome assays were carried out using 384-well, white, low-volume plates (catalog number 784904) (Greiner Bio-One) at room temperature (∼23 °C) in 8 μl reaction volumes. When activity checks were to be run in the presence or absence of a fixed concentration of proteasome inhibitor, 80 nL of the inhibitor (at a concentration 100x the required final assay concentration), or 80 nL dimethylsulfoxide (DMSO), were dispensed into assay plates using an Echo 550 acoustic dispenser (Labcyte).
as §3, §4

Test [4] has as its target recombinant β4^R mutant T. cruzi proteasome (chymotrypsin-like activity) (Trypanosoma cruzi, UniProt V5BU39+V5C017, F24L/I29M). The test can be described thus: biochemical. The protocol: as §5, §1, §2, §6, §3, §4

With `COC[C@H](NC(=O)c1cnc(C)s1)C(=O)N[C@@H](COC)C(=O)N[C@@H](Cc1ccccc1)C(=O)[C@@]1(C)CO1` [Oprozomib], the 50% inhibitory concentration (IC50) in test [1] was 89.1 nM; in test [2], 93.3 nM; in test [3], 95.5 nM; in test [4] it was 74.1 nM. For the same compound, the “extent of inhibition in chymotrypsin dose-response curve, native proteasome” value in test [1] (top of dose-response curve) is listed as “partial inhibition profile”. For the same compound, the “maximum % inhibition plateau, Chymotrypsin Assay, Wild-type” value in test [2] (mean ± SD, N = 3 (N = 2 for DDD02091966), (a) mid-point plateau from biphasic curve fits) is listed as 79.0 ± 2.3%. Also, in test [2] (top of dose-response curve), the “extent of inhibition in chymotrypsin dose-response curve, recombinant WT proteasome” value is on record as “partial inhibition profile”. For the same compound, in test [3] (top of dose-response curve), the “extent of inhibition in chymotrypsin dose-response curve, Δβ1Δβ2 mutant” value was “full inhibition”. Further, in test [4] (top of dose-response curve), the “extent of inhibition in chymotrypsin dose-response curve, β4^R mutant” value is listed as “partial inhibition profile”.

A word on the IC50: it is the concentration needed to halve the response being measured.
